Patent US12246067B2, “Neoantigens and uses thereof” (priority 2018, dated 2025)

What was measured:
HLA-A03:01 = HLA-A03:01 (Homo sapiens, UniProt P04439); assay type: binding
[1] = molecular target: T1, 293T cells expressing an HLA-A11:01 protein (Homo sapiens, UniProt P04439, A114D/D185E/E176A/F33Y/L180Q/S129P/T187R); assay type: cell-based
T1 construct: expressed in transfected cells

HLA-A11:01 = HLA-A11:01 (Homo sapiens, UniProt P04439, A114D/D185E/E176A/F33Y/L180Q/S129P/T187R); assay type: binding

VVVGACGVGK
Measured stability (HLA-A03:01): 2.5 h | Detection of HLA-presented peptide by mass spectrometry [1]: detected by mass spectrometry | Measured stability (HLA-A11:01): 15.7 h
